The source of these data is PubChem BioAssay AID652115 (Broad Institute, 2013).

Sequences of proteins named here, by UniProt entry; tags and fusion partners are left off.
UniProt Q9NXA8, whole entry: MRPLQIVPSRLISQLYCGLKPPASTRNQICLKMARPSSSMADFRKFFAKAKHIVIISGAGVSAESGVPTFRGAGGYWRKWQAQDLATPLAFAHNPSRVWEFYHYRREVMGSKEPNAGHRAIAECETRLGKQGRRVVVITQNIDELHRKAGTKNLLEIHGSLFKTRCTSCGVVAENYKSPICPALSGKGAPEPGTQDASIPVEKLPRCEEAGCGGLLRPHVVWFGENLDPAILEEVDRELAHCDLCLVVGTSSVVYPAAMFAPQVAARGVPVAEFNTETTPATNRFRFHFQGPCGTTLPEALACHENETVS

The entries are a selection whose mix differs from that of the whole data set. Some salts or complexes appear as unconnected parts, following the source record. Active and inactive are the calls of the source. No stated cut-off is given here; in the data, active means inhibition above about 15%; inconclusive means no clear call, values can overlap the other calls; inactive means below that.

This assay has as its target NAD-dependent protein deacylase sirtuin-5, mitochondrial (Homo sapiens) (UniProt Q9NXA8). The assay can be described thus: blockers of sirtuin-5 deacylase activity – biochemical, fluorescence imaging, single point, set 5, primary screen (AID 652115). The note with it: Purified SirT5, succinyl-peptide AMC, trypsin-coupled fluorescence; at 15 µM; hits give high values.
For the compound `CCc1ccc(OP(C)(=O)N2CCN(c3ccc([N+](=O)[O-])cc3)CC2)cc1` (centres undefined), the inhibition (as a rule, the drop in the measured response relative to a control, in per cent) is inactive: 1.77%. For the compound `CP(=O)(NC(=O)Nc1ccccc1)Oc1ccccc1` (centres undefined), the inhibition was inactive: 2.32%. Then `CP(=O)(Oc1ccccc1)OC(c1ccccc1)C(F)(F)F` (centres undefined), with inactive: -2.56%; and `CP(=O)(Nc1ccc(SC(F)(F)F)cc1)Oc1ccc(Cl)cc1` (centres undefined), with inactive: 0.851%. `CP(=O)(Nc1ccccn1)Oc1ccc(Cl)cc1` (centres undefined): the inhibition was inactive: -4.73%. Consider `CCOC(=O)c1ccc(NP(C)(=O)Oc2ccc(OC)cc2)cc1` (centres undefined), for which the inhibition is inactive: 2.16%. As for `O=[N+]([O-])c1cc([N+](=O)[O-])c(O)c([N+](=O)[O-])c1.c1ccc(Oc2ccncc2)cc1`, the figure is inactive: 0.666%; as for `CP(=O)(Nc1ccccc1Br)Oc1ccccc1` (centres undefined), inactive: 0.985%; as for `COc1ccccc1OP(C)(=O)Nc1ccccc1` (centres undefined), inactive: -0.651%. As to `O=[N+]([O-])c1ccc2c(c1)C=Nc1ccccc1O2`, the inhibition is inactive: -0.831%. For the compound `CC(C)(C)c1ccc(OP(C)(=O)Nc2ccc(SC(F)(F)F)cc2)cc1` (centres undefined), the inhibition is inactive: 1.48%. With `Cc1cc(C)cc(OP(C)(N)=O)c1` (centres undefined), the inhibition is inactive: -1.39%.

Take `COc1ccccc1OP(C)(=O)Nc1cc(Cl)ccc1C` (centres undefined): the inhibition is inactive: -6.06%. As for `CCN(CC)CCCOC(=O)C(O)(c1ccccc1)c1ccccc1`, the inhibition was inactive: -6.56%.

Regarding `COc1ccccc1-c1ccccn1.O=[N+]([O-])c1cc([N+](=O)[O-])c(O)c([N+](=O)[O-])c1`, the inhibition is inactive: 0.914%. Then `CCOC(=O)c1ccc(NP(C)(=O)Oc2cc(C)cc(C)c2)cc1` (centres undefined), with inactive: 2.38%. On to `Cc1cc(C)cc(OP(C)(=O)Nc2ccc(C)cc2C)c1` (centres undefined), for which the inhibition is inactive: 6.68%. Consider `COc1ccccc1OP(C)(=O)Nc1cccc(Br)c1` (centres undefined), for which the inhibition is inactive: -0.535%.

For the compound `CP(=O)(Nc1cccc(Br)c1)Oc1ccccc1` (centres undefined), the inhibition was inactive: 3.16%. As for `O=C(O)c1cccc(Nc2c([N+](=O)[O-])cc([N+](=O)[O-])cc2[N+](=O)[O-])c1`, the figure is inactive: 6.58%. Then `CCOC(=O)C(CC)C1=NC(C)(C)Cc2ccccc21.O=[N+]([O-])c1cc([N+](=O)[O-])c(O)c([N+](=O)[O-])c1` (centres undefined), with inactive: 7.97%; and `O=[N+]([O-])c1cc([N+](=O)[O-])c(Nc2nnnn2CCO)c([N+](=O)[O-])c1`, with inactive: 4.18%; and `CN1CCCCC1COC(=O)C1(O)c2ccccc2CCc2ccccc21` (centres undefined), with inactive: -2.26%. `CN(Cc1cccnc1)C(=O)COc1ccc(Cl)c(Cl)c1.O=[N+]([O-])c1cc([N+](=O)[O-])c(O)c([N+](=O)[O-])c1`: the inhibition was inactive: 0.831%. As to `O=[N+]([O-])c1cc([N+](=O)[O-])c(-n2nnc3ccccc32)c([N+](=O)[O-])c1`, the inhibition is inactive: 1.25%. As for `O=[N+]([O-])c1cc([N+](=O)[O-])c(-c2cnn(-c3ccccc3)c2)c([N+](=O)[O-])c1`, the figure is inactive: -6.91%. As for `CP(=O)(Nc1ccc(SC(F)(F)F)cc1)Oc1ccc(F)cc1` (centres undefined), the figure is inactive: -1.01%; as for `COc1ccc(NP(C)(=O)Oc2ccccc2OC)cc1` (centres undefined), inactive: -1.95%. Take `Cc1c(C(c2ccc3c(c2)OCO3)c2c(C)n(C)n(-c3ccccc3)c2=O)c(=O)n(-c2ccccc2)n1C.O=[N+]([O-])c1cc([N+](=O)[O-])c(O)c([N+](=O)[O-])c1`: the inhibition is inactive: -4.7%. Then `O=[N+]([O-])c1ccc(OP2(=O)COCCO2)cc1` (centres undefined), with inactive: -3.23%; and `Cc1cc(-c2cccc3ccccc23)c(C)cn1.O=[N+]([O-])c1cc([N+](=O)[O-])c(O)c([N+](=O)[O-])c1`, with inactive: 4.07%; and `O=[N+]([O-])c1cc([N+](=O)[O-])c(NCC2CCS(=O)(=O)C2)c([N+](=O)[O-])c1` (centres undefined), with inactive: -2.28%. As for `COc1ccc(OP(C)(=O)Nc2ccc(SC(F)(F)F)cc2)cc1` (centres undefined), the figure is inactive: -4.92%.

With `CCCCCOc1ccc(NP(C)(=O)Oc2ccc(Cl)cc2Cl)cc1` (centres undefined), the inhibition was inactive: -3.51%. As for `O=[N+]([O-])c1cc([N+](=O)[O-])c(OC2CCCCC2O)c([N+](=O)[O-])c1` (centres undefined), the figure is inactive: 5.22%. In the case of `Cc1c([N+](=O)[O-])cc([N+](=O)[O-])c(Br)c1[N+](=O)[O-]`, the inhibition is inactive: 3.42%. Then `CP(=O)(Nc1ccccc1F)Oc1ccccc1` (centres undefined), with inactive: -1.33%.

Take `CC(C)c1ccc(OP(C)(=O)Nc2ccc(SC(F)(F)F)cc2)cc1` (centres undefined): the inhibition is inactive: 1.62%. As for `O=[N+]([O-])c1cc([N+](=O)[O-])c(Nc2ccc(Cl)cc2)c([N+](=O)[O-])c1`, the figure is inactive: 1.97%.

Regarding `COc1ccc2c(c1O)-c1c(O)c(OC)cc3c1[C@H](C2)[N+](C)(C)CC3.O=[N+]([O-])c1cc([N+](=O)[O-])c([O-])c([N+](=O)[O-])c1[O-]`, the inhibition was inactive: -9.05%. Then `O=C(OC1CN2CCC1CC2)c1ccc([N+](=O)[O-])cc1` (centres undefined), with inactive: -5.43%; and `O=C(OCCN1CCN(CCOCc2ccccc2)CC1)C(O)(c1ccccc1)c1ccccc1`, with inactive: -1.23%; and `COc1ccccc1OP(C)(=O)Nc1ccc(Br)cc1` (centres undefined), with inactive: -5.02%.

For `O=[N+]([O-])c1cc([N+](=O)[O-])c(Nc2ccccn2)c([N+](=O)[O-])c1`, the inhibition is inactive: 3.51%. Regarding `Cc1cc(C)cc(OP(C)(=O)Nc2cccc(C(F)(F)F)c2)c1` (centres undefined), the inhibition is inactive: -3.96%. As for `CP(=O)(OCCOc1ccccc1)OCCOc1ccccc1`, the figure is inactive: 1.21%. As for `CCCCCCCCCCCCCCCC1C[N+](C)(C)CCOP(C)(=O)O1` (centres undefined), the figure is active: 17%; as for `CP(=O)(Nc1ccc(Cl)cc1Cl)Oc1ccccc1` (centres undefined), inactive: -3.19%; as for `CCOC(=O)c1ccc(NP(C)(=O)Oc2ccc(Cl)cc2)cc1` (centres undefined), inactive: -2.38%.

On to `Nc1ccc2c(ccc3cccnc32)n1.O=[N+]([O-])c1cc([N+](=O)[O-])c(O)c([N+](=O)[O-])c1`, for which the inhibition is inactive: -3.86%. As for `O=C(OCCCN1CCCC1)C(O)(c1ccccc1)C1CCCCC1` (centres undefined), the figure is inactive: -2.56%; as for `CCc1ccc(OP(C)(=O)Nc2cccnc2)cc1` (centres undefined), inactive: -0.74%. For the compound `CN(C)C(=O)c1c([N+](=O)[O-])cc([N+](=O)[O-])cc1[N+](=O)[O-]`, the inhibition was inactive: -3.8%. For the compound `COc1ccccc1OP(C)(=O)Nc1ccccc1Br` (centres undefined), the inhibition is inactive: -0.065%.
